{"source": "patent US20030024618A1", "about": "“Gas-generating agent composition comprising triazine derivative” (published 2003)", "origin": "cited, not measured here", "system": "rat"}
{"smiles": "NNc1nc(NN)nc(NN)n1", "values": [{"measurement": "LD50 (oral-rat)", "value": "3,161 mg/kg"}]}
